## Binding of CDR-mutated scFvs to a peptide of the spike HR2 region

Binding partner: SARS-CoV-2 spike HR2 peptide, sequence PDVDLGDISGINAS.

Parent: Ab-91, a human scFv built as VL, a (GGGGS)3 linker, VH. Only the CDRs of the heavy chain vary.
VL: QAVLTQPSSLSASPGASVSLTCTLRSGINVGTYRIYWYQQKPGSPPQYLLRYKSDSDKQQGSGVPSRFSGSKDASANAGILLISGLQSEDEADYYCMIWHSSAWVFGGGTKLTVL
VH: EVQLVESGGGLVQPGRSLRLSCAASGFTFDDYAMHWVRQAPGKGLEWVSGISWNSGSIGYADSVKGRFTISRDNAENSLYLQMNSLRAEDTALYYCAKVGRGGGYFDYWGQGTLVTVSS

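AAYL51 was designed without a model: most single CDR substitutions and a random sample of double and triple ones. The scFvs were displayed on barcoded MATa yeast, the peptide on MATalpha yeast. Binding brings cells together so that they mate, and sequencing counts the barcode pairs among the diploids. Scores were corrected for input abundance and mapped to Kd with protein pairs of known affinity run in the same pool. Mating was done three times.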

The parent's heavy chain CDRs are GFTFDDYAMH, GISWNSGSIGYADSVK, VGRGGGYFDY; each variant's own CDRs replace them letter for letter.
All variants listed here change F27 of the VH, counted from its first residue.
Each Kd is an estimate from the mating assay, the geometric mean of the replicates in which the pair was seen; lower is stronger.
A pair that was not seen in any replicate is written "nd"; this usually means weak binding, but a binder can also be missed.
Nonspecific signal, from three strains lacking the peptide, appeared in 21% of pairings of library AAYL51, centred on 34 µM (5% of these signals below 1.8 µM); values are not corrected for it. The control count says in how many pairings with the empty strains this scFv gave a signal.

* GYTFDDYAMH | GISWNSGSIGYAMSVK | VGRGGGYFDY = 5.3 µM (3 of 3 replicates; controls 0 of 9)
* GYTFDDYAMH | GISWNSGSIGYADSVK | VPRGGGYKDY = nd (0 of 3 replicates; controls 0 of 9)
* GATFDDFAMH | GISWNSGSIGYADSVK | VGRGGGYFDY = nd (0 of 3 replicates; controls 3 of 9)
* GNTFDDYALH | GISWNSGSIGYADSVK | VGRGGAYFDY = 19 µM (1 of 3 replicates; controls 3 of 9)
* GVTFDDYAYH | GIQWNSGSIGYADSVK | VGRGGGYFDY = 11 µM (3 of 3 replicates; controls 6 of 9)
* GCTFDDYAAH | GISDNSGSIGYADSVK | VGRGGGYFDY = nd (0 of 3 replicates; controls 0 of 9)
* GDTFDDYAMH | GISNRSGSIGYADSVK | VGRGGGYFDY = 16 µM (1 of 3 replicates; controls 0 of 9)
* GYTFDDYEMH | GISWNSGSIGYADSVK | VGRGNGYFDY = nd (0 of 3 replicates; controls 1 of 9)
* GETFDDYAMH | GISWNSGSIGYADSVY | VGRGGGCFDY = 210 µM (1 of 3 replicates; controls 0 of 9)
* GDTFDDYAMH | GISWNSGSEGYADQVK | VGRGGGYFDY = nd (0 of 3 replicates; controls 0 of 9)
* GRTFDDYAMH | GISWNSGSIKYADSVK | VGRGGGYFDY = nd (0 of 3 replicates; controls 0 of 9)
* GYTFDDYAMD | GISWNSGSIGYADSVP | VGRGGGYFDY = 67 µM (3 of 3 replicates; controls 8 of 9)
* GPTFDDYAMH | GISWNSGSIGYADSVK | VGRGGGYFDD = nd (0 of 3 replicates; controls 0 of 9)
* GATFDDYAMG | GISWNSGSIGYADSVK | VGRGGGYFDL = 17 µM (1 of 3 replicates; controls 3 of 9)
* GSYFDDYAMH | GISWNQGSIGYADSVK | VGRGGGYFDY = nd (0 of 3 replicates; controls 3 of 9)
* GWTFDDLAMY | GISWNSGSIGYADSVK | VGRGGGYFDY = 25 µM (1 of 3 replicates; controls 3 of 9)
* GWTFDDYGMH | HISWNSGSIGYADSVK | VGRGGGYFDY = 19 µM (1 of 3 replicates; controls 5 of 9)
* GGTFDDYAMH | GISWNSGSIDYADSVK | VGRGGGYFRY = 11 µM (3 of 3 replicates; controls 7 of 9)
* GDTFDDYAMH | GKSWNSGSIGYADSVK | VGRGGGYFDY = 200 µM (1 of 3 replicates; controls 6 of 9)
* GHTFDDYAMH | GISWNSGQIGYADSVK | VGRGGGYFDY = 7.3 µM (1 of 3 replicates; controls 1 of 9)
* GDTFDDYAMH | GISWNDGSIGYADSVK | VGRHGGYFDY = 2.9 µM (2 of 3 replicates; controls 0 of 9)
* GATFDDYCMH | GISWNSGSIGYADSVK | VGRGGGDFDY = nd (0 of 3 replicates; controls 1 of 9)
* GDTSDDYAMH | GISWNKGSIGYADSVK | VGRGGGYFDY = 27 µM (2 of 3 replicates; controls 3 of 9)
* GVTFDDYIMH | GISWNSGSIGYADSVK | VGRGGGYFDS = 960 µM (2 of 3 replicates; controls 8 of 9)
* GETFDDYAMH | GISSNSGSIRYADSVK | VGRGGGYFDY = 46 µM (1 of 3 replicates; controls 0 of 9)
* GTTFDDYAHH | GISWNSGSIGYDDSVK | VGRGGGYFDY = 18 µM (2 of 3 replicates; controls 6 of 9)
* GWTIDDYAMH | GISWNSGSIGYADLVK | VGRGGGYFDY = 5.2 µM (3 of 3 replicates; controls 6 of 9)
* GDTFDDYAMH | NISWNSGSIGYADSVK | VGRGGGYFQY = 540 nM (1 of 3 replicates; controls 0 of 9)
* GWTFDDTAMH | GIQWNSGSIGYADSVK | VGRGGGYFDY = 16 µM (1 of 3 replicates; controls 2 of 9)
* GGTFDDYAMH | GISWNSGSIGYADSVK | VGRGGGYFDY = 470 nM (3 of 3 replicates; controls 1 of 9)

Top 2 of the variants detected in all replicates, tightest first:

| CDR-H1 | CDR-H2 | CDR-H3 | Kd (apparent) | detected | empty controls |
|---|---|---|---|---|---|
| GGTFDDYAMH | GISWNSGSIGYADSVK | VGRGGGYFDY | 470 nM | 3/3 | 1/9 |
| GWTIDDYAMH | GISWNSGSIGYADLVK | VGRGGGYFDY | 5.2 µM | 3/3 | 6/9 |

Values reported by Engelhart et al. 2022, doi:10.1038/s41597-022-01779-4 (FLAb copy).